Biological target: R132C IDH1 mutant HT-1080 cells (Homo sapiens, UniProt O75874, R132C)
Assay: Quantification of intracellular 2-HG in HT-1080 cells
Type: cell-based
Settings: read-out: IDH1 IC50 HT1080 cell 2-HG

Chains of the proteins cited; added tags and fusions are not shown.
UniProt O75874, whole entry R132C: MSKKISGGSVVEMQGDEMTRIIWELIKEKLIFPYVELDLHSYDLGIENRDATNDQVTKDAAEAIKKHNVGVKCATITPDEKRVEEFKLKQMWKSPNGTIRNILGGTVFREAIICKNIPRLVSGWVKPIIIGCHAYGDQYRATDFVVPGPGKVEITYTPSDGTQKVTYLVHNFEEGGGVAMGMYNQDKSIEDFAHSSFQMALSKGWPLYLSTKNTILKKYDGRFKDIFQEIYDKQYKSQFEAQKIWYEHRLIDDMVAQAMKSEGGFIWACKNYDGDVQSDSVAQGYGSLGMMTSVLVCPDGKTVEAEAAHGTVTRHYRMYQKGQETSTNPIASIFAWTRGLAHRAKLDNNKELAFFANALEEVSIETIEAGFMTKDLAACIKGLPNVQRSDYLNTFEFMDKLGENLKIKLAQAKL
UniProt O75874, whole entry partner: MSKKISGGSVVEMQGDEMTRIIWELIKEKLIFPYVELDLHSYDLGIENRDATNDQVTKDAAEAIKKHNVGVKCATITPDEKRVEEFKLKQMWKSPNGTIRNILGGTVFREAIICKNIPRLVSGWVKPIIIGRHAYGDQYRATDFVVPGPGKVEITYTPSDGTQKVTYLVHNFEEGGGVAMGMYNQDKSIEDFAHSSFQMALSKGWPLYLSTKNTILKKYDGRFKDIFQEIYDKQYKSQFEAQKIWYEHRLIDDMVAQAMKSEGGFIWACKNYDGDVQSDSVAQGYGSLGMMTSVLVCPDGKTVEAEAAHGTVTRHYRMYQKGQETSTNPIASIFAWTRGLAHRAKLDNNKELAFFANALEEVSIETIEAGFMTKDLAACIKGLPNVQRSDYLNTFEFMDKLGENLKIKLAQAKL

C[C@H](O)c1cccc(NC(=O)c2nn(Cc3ccc(F)cc3)c3c2CN(C(=O)c2ccc[nH]2)C[C@H]3C)c1 [GSK321, (7R)-1-[(4-fluorophenyl)methyl]-N-{3-[(1S)-1-hydroxyethyl]phenyl}-7-methyl-5-(1H-pyrrol-2-ylcarbonyl)-4,5,6,7-tetrahydro-1H-pyrazolo[4,3c]pyridine-3-carboxamide] showed an IC50 of 85 nM.
